According to article PMC7689490, “Designed CXCR4 mimic acts as a soluble chemokine receptor that blocks atherogenic inflammation by agonist-specific targeting” (Nature Communications, 2020):
Where two headings read alike, the source gives them in different places.

Sequences of proteins named here, by UniProt entry; tags and fusion partners are left off. Residues count along the entry.
UniProt P48061, 22-89 limits assumed: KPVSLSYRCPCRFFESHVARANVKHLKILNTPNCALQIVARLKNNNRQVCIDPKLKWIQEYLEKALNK

What was measured:
CXCL12 [1] = biological target: T1, CXCL12 (Homo sapiens, UniProt P48061); assay: Microscale thermophoresis (MST), TAMRA-msR4M-L1 / CXCL12; assay type: binding
T1 construct: purchased Peprotech
Method: MST measurements were recorded on a Monolith NT.115 instrument with green/red filters (NanoTemper Technologies, Munich, Germany). MST and LED power were set 80 and 95%, respectively. All measurements were performed at 37 °C. MST traces were tracked for 40 s (laser-off: 5 s, laser-on: 30 s; laser-off: 5 s). […] Data points/MST traces were analyzed at an MST-on time of 1.5 s using the MO.Affinity Analysis v2.2.4 (NanoTemper Technologies).
App. KD values were calculated assuming a 1/1 binding model, using sigmoidal curve fittings with OriginPro 2016 (OriginLab) or GraFit 5 (Erithacus Software Ltd.) data analysis software as appropriate.

CXCL12 [2] = biological target: T1, CXCL12; assay: Fluorescence polarization (FP), Fluos-msR4M-L1 / CXCL12; assay type: binding
Method: FP was measured with a JASCO FP-6500 fluorescence spectrophotometer equipped with FDP-223 and FDP-243 polarizers.
Bandwidth for excitation and emission was set at 5 nm and time response at 0.5 s. The excitation wavelength was 492 nm and emission was recorded at 519 nm. Measurements were performed at RT and within 2–3 min upon preparation of the solutions. Polarization was calculated using the equation: P = (Iǁ − G·I⊥) / (Iǁ + G·I⊥), in which Iǁ is the intensity of emitted light polarized parallel to the excitation light, I⊥ is the intensity of emitted light polarized perpendicular to the excitation light, and the G factor was calculated based on the instrumental documentation (https://currentprotocols.onlinelibrary.wiley.com/doi/10.1002/9780470559277.ch090102. Apparent KD values (app. KD) were calculated assuming a 1/1 binding model, using sigmoidal curve fittings with OriginPro 2016 (OriginLab) or GraFit 5 (Erithacus Software Ltd.) data analysis software as appropriate.

[3] = biological target: T2, MIF / HA-tagged sCD74(73–232) (Homo sapiens, UniProt P14174); assay: MST binding competition, Alexa-647-MIF / sCD74 with msR4M-L1; details: Suppl. Fig. 9a, in the presence of msR4M-L1
T2 construct: purchased R&D Systems
T2 sequence (P14174 2-115): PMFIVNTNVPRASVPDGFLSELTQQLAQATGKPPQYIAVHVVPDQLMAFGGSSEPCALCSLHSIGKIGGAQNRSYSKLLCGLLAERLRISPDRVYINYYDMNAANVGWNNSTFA
T2 sequence (P04233 73-232 isoform P04233-2 partner limits assumed): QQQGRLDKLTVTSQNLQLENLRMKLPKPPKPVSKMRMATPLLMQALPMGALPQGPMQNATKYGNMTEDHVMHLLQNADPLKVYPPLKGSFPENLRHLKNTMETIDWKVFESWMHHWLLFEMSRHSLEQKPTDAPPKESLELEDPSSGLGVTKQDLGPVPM

[4] = Self-assembly by fluorescence titration (Fluos-peptide with unlabeled peptide); assay type: physicochemical; details: fluorescence emission at 522 nm
Method: Fluorescence spectroscopic titrations were performed using a JASCO FP-6500 fluorescence spectrophotometer. […] The excitation wavelength was 492 nm and emission spectra were obtained between 500 and 600 nm. Apparent KD values (app. KD) were calculated assuming a 1/1 binding model using sigmoidal curve fittings with OriginPro 2016 (OriginLab, Northampton, MA, USA) or GraFit 5 (Erithacus Software Ltd., Wilmington House, UK) data analysis software as appropriate.

[5] = test system: primary mouse spleen B lymphocytes; assay: MIF-triggered Transwell chemotaxis of primary splenic B cells; assay type: cell-based; details: 16 nM MIF; estimated from IC50 plot, means of three experiments; read-out: IC50 of inhibition of MIF-mediated B-cell chemotaxis;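 further: migration tracked over 4 h at 37 °C, read out as transmigrated cells counted by flow cytometry with absolute counting beads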
Method: A Transwell-based assay was used as described previously. Briefly, splenic B cells were isolated by negative depletion using a Pan B Cell Isolation Kit (Miltenyi Biotec, Bergisch Gladbach, Germany). Purity of the cells was between 95 and 99%. […] Chemotaxis was followed for 4 h at 37 °C in a humidified atmosphere of 5% CO2. Migrated cells were counted by flow cytometry using CountBright™ Absolute Counting Beads (Molecular Probes-Invitrogen).

[6] = biological target: T2, MIF / HA-tagged sCD74(73–232); assay: FP binding competition, Alexa-488-MIF / sCD74 with msR4M-L1; details: Suppl. Fig. 9b, in the presence of msR4M-L1
CXCL12 [7] = biological target: T1, CXCL12; assay: Fluorescence spectroscopic titration of Fluos-labeled ectodomain peptides with CXCL12; assay type: binding
[8] = App. Kd Alexa-MIF + sCD74 + msR4M-L1, 1st curve, replicate 1 (1st curve)
[9] = App. Kd Alexa-MIF + sCD74 + msR4M-L1, 2nd curve, replicate 2 (2nd curve)
[10] = App. Kd Alexa-MIF + sCD74 + msR4M-L1, 3rd curve, replicate 3 (3rd curve)

Work on `CC[C@H](C)[C@H](NC(=O)[C@H](Cc1ccc(O)cc1)NC(=O)[C@H](CCCNC(=N)N)NC(=O)[C@H](CC(=O)O)NC(=O)CCCCCCCCCCCNC(=O)CCCCCNC(=O)[C@H](CCCCN)NC(=O)[C@H](CS)NC(=O)[C@H](CC(C)C)NC(=O)[C@H](Cc1ccccc1)NC(=O)[C@H](CC(N)=O)NC(=O)CNC(=O)[C@H](Cc1ccccc1)NC(=O)[C@H](Cc1ccc(O)cc1)NC(=O)[C@H](Cc1c[nH]c2ccccc12)NC(=O)[C@H](CC(N)=O)NC(=O)[C@H](C)NC(=O)[C@@H](NC(=O)[C@H](C)NC(=O)[C@@H](N)CC(=O)O)C(C)C)C(=O)N[C@@H](CS)C(=O)N[C@@H](CC(=O)O)C(=O)N[C@@H](CCCNC(=N)N)C(=O)N[C@@H](Cc1ccccc1)C(=O)N[C@@H](Cc1ccc(O)cc1)C(=O)N1CCC[C@H]1C(=O)N[C@@H](CC(N)=O)C(=O)N[C@@H](CC(=O)O)C(=O)N[C@@H](CC(C)C)C(=O)N[C@@H](Cc1c[nH]c2ccccc12)C(=O)N[C@H](C(N)=O)C(C)C` [msR4M-L1, CXCR4-ECL1[97–110]-6-Ahx-12-Ado-ECL2[182–196]] yielded a Kd (CXCL12 [1]; App. Kd TAMRA-msR4M-L1/CXCL12 MST, 1st curve, replicate 1) greater than 3130 nM, a Kd (CXCL12 [1]; App. Kd TAMRA-msR4M-L1/CXCL12 MST, 2nd curve, replicate 2) of 541 nM and a Kd (CXCL12 [1]; App. Kd TAMRA-msR4M-L1/CXCL12 MST, 3rd curve, replicate 3) greater than 3130 nM. It also gave a Kd (CXCL12 [1]; App. Kd TAMRA-msR4M-L1/CXCL12 MST, 4th curve, replicate 4) greater than 3130 nM, a Kd (CXCL12 [1]; App. Kd TAMRA-msR4M-L1/CXCL12 MST, 5th curve, replicate 5) greater than 3130 nM and a Kd (CXCL12 [1]; TAMRA-msR4M-L1/CXCL12 (app. KD), MST, TAMRA-msR4M-L1 100 nM, 37 °C, 5 independent experiments) greater than 3130 nM. It also gave a Kd (CXCL12 [2]; Fluos-msR4M-L1 5 nM, CXCL12 5 nM-2.5 µM, mean of 3, read-out: Fluos-msR4M-L1/CXCL12 (app. KD), FP) greater than 2500 nM, a Kd (CXCL12 [2]; replicate 1, read-out: App. Kd Fluos-msR4M-L1/CXCL12 FP, 1st curve) greater than 2500 nM and a Kd (CXCL12 [2]; replicate 2, read-out: App. Kd Fluos-msR4M-L1/CXCL12 FP, 2nd curve) greater than 2500 nM. The Kd (CXCL12 [2]; replicate 3, read-out: App. Kd Fluos-msR4M-L1/CXCL12 FP, 3rd curve) was greater than 2500 nM, the Kd [3, 8] was 26 nM and the Kd [3, 9] was 28 nM. For the same molecule, the Kd [3, 10] was 49.6 nM, the Kd ([4]; titration with unlabeled peptide, mean of 3 curves (Suppl. Fig. 6c/6d right panel), read-out: App. Kd, self-assembly, mean values of the 3 curves) was 142 nM and the Kd ([4]; replicate 1 (1st curve), read-out: App. Kd, self-assembly, 1st curve) was 197 nM. The Kd ([4]; replicate 2 (2nd curve), read-out: App. Kd, self-assembly, 2nd curve) was 103 nM, the Kd ([4]; replicate 3 (3rd curve), read-out: App. Kd, self-assembly, 3rd curve) was 126 nM and the IC50 [5] was 10 to 15 nM. The Kd [6, 8] was 42.1 nM, the Kd [6, 9] was 150 nM and the Kd [6, 10] was 75.7 nM. It also gave a Kd (CXCL12 [7]) greater than 6340 nM, a Kd (CXCL12 [7]; read-out: App. Kd Fluos-msR4M-L1/CXCL12, 1st curve, fluorescence spectroscopy, replicate 1) greater than 6340 nM and a Kd (CXCL12 [7]; read-out: App. Kd Fluos-msR4M-L1/CXCL12, 2nd curve, fluorescence spectroscopy, replicate 2) greater than 6340 nM. For the same molecule, the Kd (CXCL12 [7]; read-out: App. Kd Fluos-msR4M-L1/CXCL12, 3rd curve, fluorescence spectroscopy, replicate 3) was greater than 6340 nM and the Kd (CXCL12 [7]; read-out: app. KD Fluos-peptide/CXCL12, fluorescence spectroscopy) was greater than 6000 nM.
